Data: patent US20240109852A1, “Ferroptosis-HDAC Inhibitor Hybrid Anticancer Agents” (The University of Toledo, priority 2022, published 2024)

What was measured:
[1] = system: HCT116 human colorectal carcinoma cells; test: Cell viability assay (methylene blue staining), HCT-116; format: cell-based; details: HCT-116, 72 h, read-out: IC50 ± SD (n = 3) on HCT-116 cell line
[2] = system: NCI-H522 human lung cancer cells; test: Cell viability assay (methylene blue staining), NCI-H522; format: cell-based; details: NCI-H522, 72 h, read-out: IC50 ± SD (n = 3) on NCI-H522 cell line
[3] = system: IGROV-1 (ovarian cancer cell line); details: single dose of 10 mM
[4] = system: CCRF-CEM cell line (leukemia); details: single dose of 10 mM
[5] = system: SF-539 (CNS cancer cell line); details: single dose of 10 mM
[6] = system: PC-3 cells (prostate cancer); details: single dose of 10 mM
[7] = system: NCI-H23 cell line (NSC-Lung cancer); details: single dose of 10 mM
[8] = system: LOX IMVI cell line (melanoma); details: single dose of 10 mM
[9] = system: SNB-75 (CNS cancer cell line); details: single dose of 10 mM
[10] = system: DU-145 cells (prostate cancer); details: single dose of 10 mM
[11] = system: MDA-MB-231 (triple-negative breast cancer cell line); details: single dose of 10 mM

| SMILES | IC50 [1] | IC50 [2] | further results |
| --- | --- | --- | --- |
| C#Cc1nc(/C=C/C(=O)OC)cs1 [FC-5, Methyl (E)-3-(2-ethynylthiazol-4-yl)acrylate] | 13.7 µM | 2.29 µM |  |
| C#Cc1nc(/C=C/C=C/C(=O)OC)cs1 [FC-4, Methyl (2E,4E)-5-(2-ethynylthiazol-4-yl)penta-2,4-dienoate] |  | 2.8 µM |  |
| C#Cc1nc(/C=C/C(=O)NO)cs1 [HY-5, (E)-3-(2-ethynylthiazol-4-yl)-N-hydroxyacrylamide] | 5.16 µM | 0.79 µM |  |
| C#Cc1nc(C(=O)NCCCCCCC(=O)NO)cs1 [HY-1, 2-Ethynyl-N-(7-(hydroxyamino)-7-oxoheptyl)thiazole-4-carboxamide] | 0.61 µM |  | Growth %, IGROV-1 [3]: −72.55%; Growth %, CCRF-CEM [4]: −41.42%; Growth %, SF-539 [5]: −80.14%; Growth %, PC-3 [6]: 14.28%; Growth %, NCI-H23 [7]: −74.60%; Growth %, LOX IMVI [8]: −84.63%; Growth %, SNB-75 [9]: −65.15%; Growth %, DU-145 [10]: −51.12%; Growth %, MDA-MB-231 [11]: −71.82% |
| C#Cc1nc(/C=C/CCCCCC(=O)OCC)cs1 [FC-3, Ethyl (E)-8-(2-ethynylthiazol-4-yl)oct-7-enoate] |  | 15.7 µM |  |
| C#Cc1nc(C(=O)NCCCCCCC(=O)OC)cs1 [FC-1, Methyl 7-(2-ethynylthiazole-4-carboxamido)heptanoate] |  | 3.33 µM |  |
| C#Cc1nc(/C=C/C=C/C(=O)NO)cs1 [HY-4, (2E,4E)-5-(2-ethynylthiazol-4-yl)-N-hydroxypenta-2,4-dienamide] | 5.43 µM | 0.52 µM |  |
| C#Cc1nc(/C=C\CCCCCC(=O)OCC)cs1 [FC-2, Ethyl (Z)-8-(2-ethynylthiazol-4-yl)oct-7-enoate] |  | 7.33 µM |  |
